Protein sequences, listed by entry. Tags and fused reporters are not part of them. Residues count along the entry.
UniProt P48169, 36-554 limits assumed: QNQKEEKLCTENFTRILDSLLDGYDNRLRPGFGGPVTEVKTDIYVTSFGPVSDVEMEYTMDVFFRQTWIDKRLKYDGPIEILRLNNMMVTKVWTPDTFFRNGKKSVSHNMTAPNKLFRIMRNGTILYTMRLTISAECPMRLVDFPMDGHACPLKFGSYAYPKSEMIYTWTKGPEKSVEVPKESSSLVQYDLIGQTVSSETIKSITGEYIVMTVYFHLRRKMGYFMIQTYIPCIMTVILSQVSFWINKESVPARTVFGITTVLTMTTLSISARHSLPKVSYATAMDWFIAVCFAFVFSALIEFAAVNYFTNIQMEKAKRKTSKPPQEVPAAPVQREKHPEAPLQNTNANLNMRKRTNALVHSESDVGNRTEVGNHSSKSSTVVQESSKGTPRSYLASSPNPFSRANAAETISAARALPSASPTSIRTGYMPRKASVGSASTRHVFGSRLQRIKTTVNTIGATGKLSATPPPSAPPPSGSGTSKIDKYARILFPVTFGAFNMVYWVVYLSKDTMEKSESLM

In article PMC4657098, “A Review of the Updated Pharmacophore for the Alpha 5 GABA(A) Benzodiazepine Receptor Model” (International Journal of Medicinal Chemistry, 2015):

How the values were obtained:
α6β3γ2 GABAA/BzR = α6β3γ2 GABAA/BzR (Homo sapiens, UniProt P18507+Q16445); assay: Competition binding to HEK cell membranes, α6β3γ2; details: read-out: Ki α6
α5β3γ2 GABAA/BzR = α5β3γ2 GABAA/BzR (Homo sapiens, UniProt P18507+P31644); assay: Competition binding to HEK cell membranes, α5β3γ2; details: read-out: Ki α5
α4β3γ2 GABAA/BzR = α4β3γ2 GABAA/BzR (Homo sapiens, UniProt P18507+P48169); details: read-out: Ki α4
α1β3γ2 GABAA/BzR = α1β3γ2 GABAA/BzR (Homo sapiens, UniProt P14867+P18507); assay: Competition binding to HEK cell membranes, α1β3γ2; details: read-out: Ki α1
α3β3γ2 GABAA/BzR = α3β3γ2 GABAA/BzR (Homo sapiens, UniProt P18507+P34903); assay: Competition binding to HEK cell membranes, α3β3γ2; details: read-out: Ki α3
α2β3γ2 GABAA/BzR = α2β3γ2 GABAA/BzR (Homo sapiens, UniProt P18507+P47869); assay: Competition binding to HEK cell membranes, α2β3γ2; details: read-out: Ki α2

SMILES	Ki (α6β3γ2 GABAA/BzR) [nM]	other results
CC(C)(C)c1ccc2[nH]cc3c(=O)n(-c4ccc(Cl)cc4)nc-3c2c1	1000	
CCOC(=O)c1ncn2c1CN(C)C(=O)c1cc(-c3ccco3)ccc1-2		Ki (α5β3γ2 GABAA/BzR): 0.6 nM
CC(C)(C)OC(=O)c1ncn2c1CN=C(c1ccccc1)c1cc(Br)ccc1-2	2000	Ki (α5β3γ2 GABAA/BzR): 10 nM; Ki (α4β3γ2 GABAA/BzR): 1000 nM
CCOC(=O)c1ncn2c1CN(C)C(=O)c1cc(-c3ccccc3)ccc1-2		Ki (α1β3γ2 GABAA/BzR): 7 nM
C[Si](C)(C)C#Cc1ccc2c3nn(-c4ccccc4)c(=O)c-3c[nH]c2c1	100	
CCOC(=O)c1ncn2c1CN(C)C(=O)c1cc(Br)ccc1-2		Ki (α5β3γ2 GABAA/BzR): 0.7 nM
CC#Cc1ccc2c(c1)C(=O)N(C)Cc1c(C(=O)OCC)ncn1-2	100	
CN1C(=O)CN=C(c2ccccc2[N+](=O)[O-])c2cc([N+](=O)[O-])ccc21	10000	
CC(C)(C)c1ccc2[nH]cc3c(=O)n(-c4ccc(Br)cc4)nc-3c2c1		Ki (α3β3γ2 GABAA/BzR): 20 nM
CCOC(=O)c1ncc2[nH]c3ccc(O)cc3c2c1COC	3000	Ki (α1β3γ2 GABAA/BzR): 2 nM
C[Si](C)(C)C#Cc1ccc(-n2nc3c4ccccc4[nH]cc-3c2=O)cc1	1000	Ki (α1β3γ2 GABAA/BzR): 3 nM
O=c1c2c[nH]c3cc(Br)ccc3c-2nn1-c1ccccc1 [QH-II-077]	4	Ki (α1β3γ2 GABAA/BzR): 0.06 nM; Ki (α2β3γ2 GABAA/BzR): 0.08 nM; Ki (α3β3γ2 GABAA/BzR): 0.05 nM
C#Cc1ccc2c(c1)C(c1ccccc1Cl)=NCc1nnc(C)n1-2	5000	
CCOC(=O)c1ncn2c1CN(C)C(=O)c1ccccc1-2	500	
CCOC(=O)c1ncn2c1CN(C)C(=O)c1cc(OC)ccc1-2	40	
CCOC(=O)c1ncn2c1CN(C)C(=O)c1cc(C#N)ccc1-2	1000	
